Test system: COc1cc(/C=C/C(=O)OCC[N+](C)(C)C)cc(OC)c1O
Experiment: purified protein
Conditions: free enzyme, co-substrate 20 mM H2O2, citrate-phosphate buffer, optimum pH 7.5, 70 °C (temperature and pH of the kinetic runs not stated outright)

Substance YjqC (Bacillus altitudinis) has a Km of 1600 µM, a kcat of 5.8 s⁻¹ and a kcat/Km of 4000 M⁻¹ s⁻¹.

Source: publication PMC4928806, “Hydrogen Peroxide-Resistant CotA and YjqC of Bacillus altitudinis Spores Are a Promising Biocatalyst for Catalyzing Reduction of Sinapic Acid and Sinapine in Rapeseed Meal” (PLoS ONE, 2016)
